The NIST ThermoML archive (doi:10.1021/je020196d)
± gives the expanded uncertainty stated by the source.

Columns and labels:
[1] = 293.15 K; 101.33 kPa; Liquid
[2] = refractive index (Na D-line) (dimensionless); conditions: 293.15 K; 101.33 kPa; Liquid; Standard Abbe refractometry

mass density [1]: 1125.6 ± 5 kg/m3
refractive index [2]: 1.4571 ± 0.0007
SMILES: OCCOCCOCCOCCO [tetraethylene glycol]
